How the values were obtained:
[1] = system: Cephalosporium acremonium; assay: 30 liter stirred tank fermentation (Example 4); settings: 300 ppm added at 96 h
[2] = system: Cephalosporium acremonium; assay: Shake flask fermentation, inhibitors added to medium prior to sterilization (Example 3); settings: Day 6
[3] = system: Cephalosporium acremonium; assay: Shake flask fermentation, inhibitors added at 0, 48 and 96 hours after inoculation (Example 2)
[4] = added at 0 hour, final conc. 100 ppm, Day 6
[5] = added at 0 hour, final conc. 100 ppm, Day 7
[6] = added at 0 hour, final conc. 200 ppm, Day 6
[7] = added at 0 hour, final conc. 200 ppm, Day 7
[8] = added at 0 hour, final conc. 400 ppm, Day 6
[9] = added at 0 hour, final conc. 400 ppm, Day 7
[10] = added at 0 hour, final conc. 800 ppm, Day 6
[11] = added at 0 hour, final conc. 800 ppm, Day 7
[12] = added at 48 hour, final conc. 100 ppm, Day 6
[13] = added at 48 hour, final conc. 100 ppm, Day 7
[14] = added at 48 hour, final conc. 200 ppm, Day 6
[15] = added at 48 hour, final conc. 200 ppm, Day 7
[16] = added at 48 hour, final conc. 400 ppm, Day 6
[17] = added at 48 hour, final conc. 400 ppm, Day 7
[18] = added at 48 hour, final conc. 800 ppm, Day 6
[19] = added at 48 hour, final conc. 800 ppm, Day 7
[20] = added at 96 hour, final conc. 100 ppm, Day 6
[21] = added at 96 hour, final conc. 100 ppm, Day 7
[22] = added at 96 hour, final conc. 200 ppm, Day 6
[23] = added at 96 hour, final conc. 200 ppm, Day 7
[24] = added at 96 hour, final conc. 400 ppm, Day 6
[25] = added at 96 hour, final conc. 400 ppm, Day 7
[26] = added at 96 hour, final conc. 800 ppm, Day 6
[27] = added at 96 hour, final conc. 800 ppm, Day 7

## CCCCOP(OCCCC)OCCCC
[1]; time 74 hours (before addition)
  desacetylcephalosporin C of the total ceph nucleus (head is drawing 8): 4.2%
[1]; time 85 hours (before addition)
  desacetylcephalosporin C of the total ceph nucleus (head is drawing 8): 3.7%
[1]; time 98 hours
  desacetylcephalosporin C of the total ceph nucleus (head is drawing 8): 4.3%
[1]; time 109 hours
  desacetylcephalosporin C of the total ceph nucleus (head is drawing 8): 4.0%
[1]; time 122 hours
  desacetylcephalosporin C of the total ceph nucleus (head is drawing 8): 4.6%
[1]; time 133 hours
  desacetylcephalosporin C of the total ceph nucleus (head is drawing 8): 5.8%
[1]; time 146 hours
  desacetylcephalosporin C of the total ceph nucleus (head is drawing 8): 6.9%
[1]; time 157 hours
  desacetylcephalosporin C of the total ceph nucleus (head is drawing 8): 7.9%
[1]; time 170 hours, control run 15.0
  desacetylcephalosporin C of the total ceph nucleus (head is drawing 8): 9.1%

## phosphorous acid
[2]; final conc. 200 ppm
  Ceph C: 9,740 mcg/g
  Des Ceph C: 600 µg/g
  Des Ceph C share of total ceph nucleus (head is drawing 6): 5.8
[2]; final conc. 400 ppm
  Ceph C: 8,050 mcg/g
  Des Ceph C: 340 µg/g
  Des Ceph C share of total ceph nucleus (head is drawing 6): 4.0
[2]; final conc. 800 ppm
  Ceph C: 7,111 mcg/g
  Des Ceph C: 285 µg/g
  Des Ceph C share of total ceph nucleus (head is drawing 6): 3.8
[3]; [4]
  Ceph C: 11,810 mcg/g
  Des Ceph C: 730 µg/g
  Des Ceph C share of total ceph nucleus (head is drawing 3): 5.8
[3]; [5]
  Ceph C: 10,300 mcg/g
  Des Ceph C: 925 µg/g
  Des Ceph C share of total ceph nucleus (head is drawing 4): 8.2
[3]; [6]
  Ceph C: 10,540 mcg/g
  Des Ceph C: 460 µg/g
  Des Ceph C share of total ceph nucleus (head is drawing 3): 4.2
[3]; [7]
  Ceph C: 11,585 mcg/g
  Des Ceph C: 935 µg/g
  Des Ceph C share of total ceph nucleus (head is drawing 4): 7.4
[3]; [8]
  Ceph C: 9,940 mcg/g
  Des Ceph C: 350 µg/g
  Des Ceph C share of total ceph nucleus (head is drawing 3): 3.4
[3]; [9]
  Ceph C: 10,240 mcg/g
  Des Ceph C: 500 µg/g
  Des Ceph C share of total ceph nucleus (head is drawing 4): 4.6
[3]; [10]
  Ceph C: 10,600 mcg/g
  Des Ceph C: 390 µg/g
  Des Ceph C share of total ceph nucleus (head is drawing 3): 3.5
[3]; [11]
  Ceph C: 10,335 mcg/g
  Des Ceph C: 425 µg/g
  Des Ceph C share of total ceph nucleus (head is drawing 4): 3.9
[3]; [12]
  Ceph C: 10,300 mcg/g
  Des Ceph C: 710 µg/g
  Des Ceph C share of total ceph nucleus (head is drawing 3): 6.4
[3]; [13]
  Ceph C: 9,370 mcg/g
  Des Ceph C: 820 µg/g
  Des Ceph C share of total ceph nucleus (head is drawing 4): 8.0
[3]; [14]
  Ceph C: 9,895 mcg/g
  Des Ceph C: 535 µg/g
  Des Ceph C share of total ceph nucleus (head is drawing 3): 5.1
[3]; [15]
  Ceph C: 9,950 mcg/g
  Des Ceph C: 710 µg/g
  Des Ceph C share of total ceph nucleus (head is drawing 4): 6.6
[3]; [16]
  Ceph C: 10,030 mcg/g
  Des Ceph C: 405 µg/g
  Des Ceph C share of total ceph nucleus (head is drawing 3): 3.8
[3]; [17]
  Ceph C: 9,305 mcg/g
  Des Ceph C: 480 µg/g
  Des Ceph C share of total ceph nucleus (head is drawing 4): 4.9
[3]; [18]
  Ceph C: 9,200 mcg/g
  Des Ceph C: 355 µg/g
  Des Ceph C share of total ceph nucleus (head is drawing 3): 3.7
[3]; [19]
  Ceph C: 9,180 mcg/g
  Des Ceph C: 470 µg/g
  Des Ceph C share of total ceph nucleus (head is drawing 4): 4.8
[3]; [20]
  Ceph C: 8,355 mcg/g
  Des Ceph C: 755 µg/g
  Des Ceph C share of total ceph nucleus (head is drawing 3): 8.3
[3]; [21]
  Ceph C: 10,240 mcg/g
  Des Ceph C: 1,430 mcg/g
  Des Ceph C share of total ceph nucleus (head is drawing 4): 12.2
[3]; [22]
  Ceph C: 7.670 µg/g
  Des Ceph C: 670 µg/g
  Des Ceph C share of total ceph nucleus (head is drawing 3): 8.0
[3]; [23]
  Ceph C: 9,605 mcg/g
  Des Ceph C: 975 µg/g
  Des Ceph C share of total ceph nucleus (head is drawing 4): 9.2
[3]; [24]
  Ceph C: 7,830 mcg/g
  Des Ceph C: 640 µg/g
  Des Ceph C share of total ceph nucleus (head is drawing 3): 7.5
[3]; [25]
  Ceph C: 8,645 mcg/g
  Des Ceph C: 705 µg/g
  Des Ceph C share of total ceph nucleus (head is drawing 4): 7.5
[3]; [26]
  Ceph C: 10,140 mcg/g
  Des Ceph C: 780 µg/g
  Des Ceph C share of total ceph nucleus (head is drawing 3): 7.1
[3]; [27]
  Ceph C: 8,225 mcg/g
  Des Ceph C: 770 µg/g
  Des Ceph C share of total ceph nucleus (head is drawing 4): 8.5

Source: patent US4520101A (priority 1983, dated 1985)
